Source: US20080118493A1, “Elevated Hedgehog Pathway Activity In Digestive System Tumors, And Methods Of Treating Digestive Sytem Tumors Having Elevated Hedgehog Pathway Activity” (priority 2003, published 2008)

Assays:
[1] = system: single passage pancreatic cancer xenograft cells; test: Proliferation (MTS) assay in first passage pancreatic cancer xenograft cells; format: cell-based, human; conditions: 3.0 μM cyclopamine
Text: Cells and tissues: Origins and sources of cells and tissues are described in the Table (below). First passage pancreatic cancer xenografts were derived from freshly harvested pancreaticoduodenectomy specimens as described^14. […] After reaching 25 mm in greatest dimension, xenograft tumors were harvested, minced, and plated into tissue culture vessels in RPMI, 20% Fetal Bovine Serum (FBS) for assays as described below. The diagnosis of frozen samples from gastric and pancreatic adenocarcinoma resections and adjacent normal stomach and pancreas was microscopically confirmed by two pathologists, and RNA was prepared as described^14.

Hh pathway activity = test: Hh-responsive luciferase reporter assay in digestive tract tumor cell lines; format: cell-based, human; conditions: cell lines producing detectable PTCH mRNA
Protocol: Hh-responsive reporter assays: Hh-responsive firefly luciferase and control SV-40 Renilla luciferase reporter assays were performed on subconfluent triplicate cultures as described^22. Two days after transfection, cells were cultured for two days in assay media: RPMI-1640 (Bio-Whittaker; Walkersville Md.) supplemented with 0.5% (established cell lines) or 20% (first passage xenografts) fetal bovine serum (FBS) and containing combinations of 5E1 anti-Hh monoclonal antibody, recombinant doubly lipid modified Sonic hedgehog (ShhNp) peptide^12, cyclopamine purified from Veratrum extract, or tomatidine (ICN Pharmaceuticals; Costa Mesa Calif.) at the indicated concentrations.

## CC1=C2C[C@H]3[C@@H](CC=C4C[C@@H](O)CC[C@@]43C)[C@@H]2CC[C@]12O[C@@H]1C[C@H](C)CN[C@H]1[C@H]2C [cyclopamine]
[1]; PTCH mRNA-expressing xenografts
  viable cell mass: decreased viable cell mass
[1]; single passage xenografts lacking PTCH mRNA
  growth: grew equally well in control and cyclopamine containing media
Hh pathway activity
  Hh pathway activity (Hh-inducible luciferase reporter): inhibited in a dose-dependent manner
